# Test results: article PMC6730887 (2019)
# T1: GST-Glmn (Glomulin) (UniProt Q92990 1-594)
# T1 chain: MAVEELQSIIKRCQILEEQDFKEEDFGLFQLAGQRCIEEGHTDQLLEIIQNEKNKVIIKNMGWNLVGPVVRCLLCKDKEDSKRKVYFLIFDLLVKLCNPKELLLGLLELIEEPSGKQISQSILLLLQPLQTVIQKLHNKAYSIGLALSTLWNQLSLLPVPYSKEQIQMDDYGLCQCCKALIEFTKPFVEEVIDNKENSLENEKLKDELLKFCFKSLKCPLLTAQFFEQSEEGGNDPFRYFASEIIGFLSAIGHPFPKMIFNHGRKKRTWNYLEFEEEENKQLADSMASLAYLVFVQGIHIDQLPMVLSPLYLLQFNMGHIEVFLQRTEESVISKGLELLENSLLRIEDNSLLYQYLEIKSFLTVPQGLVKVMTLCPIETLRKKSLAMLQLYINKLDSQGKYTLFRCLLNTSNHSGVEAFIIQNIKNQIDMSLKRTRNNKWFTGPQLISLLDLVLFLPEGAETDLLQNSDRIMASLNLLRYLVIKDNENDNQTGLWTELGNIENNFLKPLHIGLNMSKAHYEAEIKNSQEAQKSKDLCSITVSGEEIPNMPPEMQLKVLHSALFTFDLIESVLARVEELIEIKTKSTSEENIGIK
# Biological target: T1, GST-Glmn (Glomulin)
# Experiment: FRET
binder,measurement,value
His-FKBP12.6 (natural protein) MGVEIETISPGDGRTFPKKGQTCVVHYTGMLQNGKKFDSSRDRNKPFKFRIGKQEVIKGFEEGAAQMSLGQRAKLTCTPDVAYGATGHPGVIPPNATLIFDVELLNLE,IC50,63 nM
